Data: US20110092456A1, “Methods of increasing cAMP levels and uses thereof” (priority 2009, published 2011)

Conditions: rat, in vivo

Q: Which mean heart rate does the source give for `O=C1CCc2cc(OCCCCc3nnnn3C3CCCCC3)ccc2N1` [cilostazol] here?
A: 228.0±0.4 bpm
